# Assay results as given in ChEMBL document CHEMBL4028893, “Discovery and Optimization of Potent, Cell-Active Pyrazole-Based Inhibitors of Lactate Dehydrogenase (LDH)” (J Med Chem, 2017).
# Tests used:
# [1] = system: Mus musculus; experiment: Half life in CD1 mouse plasma at 50 mg/kg, po measured over 24 hrs post dose by LC/MS/MS analysis; format: ADME, organism-based; conditions: in vivo
# [2] = Kinetic solubility of compound in PBS buffer at 150 uM at pH 7.4 after 6 hrs by shake-flask method; format: physicochemical; conditions: pH 7.4, 6 h
# [3] = system: Plasma; experiment: Half life in mouse plasma; format: ADME, cell-free
# [4] = system: Liver; experiment: Half life in rat liver microsomes in presence of NADPH/UDPGA; format: ADME, microsome
Compound,t1/2 [1] [h],Kinetic_solubility [2] [µg/mL],t1/2 [3] [h],t1/2 [4] [h]
NS(=O)(=O)c1ccc(Cc2c(-c3cccc(-c4ccccc4)c3)nn(-c3nc(C(=O)O)cs3)c2C2CC2)cc1,1.94,> 82,> 2,> 0.5
NS(=O)(=O)c1ccc(Cc2c(-c3cccc(-c4ccccc4)c3)nn(-c3nc(C(=O)O)cs3)c2CC2CC2)cc1,–,> 82,> 2,> 0.5
